According to patent US4618613A, “Preventive and healing composition for diseases due to lipoxygenase metabolic products” (Kyowa Hakko Kogyo Company, Ltd., priority 1983, dated 1986):
Structures can show the parent of a compound that is named as a salt.

Molecular target: T1, 5-lipoxygenase (Rattus norvegicus, UniProt P12527)
T1 construct: leukemic basophilic granulocyte cells of rats (RBL-1, ATCC No. CRL 1378) were used as a 5-lipoxygenase enzyme source; host or cells: RBL-1 (rat basophilic leukemia cells)
T1 sequence (P12527 1-673): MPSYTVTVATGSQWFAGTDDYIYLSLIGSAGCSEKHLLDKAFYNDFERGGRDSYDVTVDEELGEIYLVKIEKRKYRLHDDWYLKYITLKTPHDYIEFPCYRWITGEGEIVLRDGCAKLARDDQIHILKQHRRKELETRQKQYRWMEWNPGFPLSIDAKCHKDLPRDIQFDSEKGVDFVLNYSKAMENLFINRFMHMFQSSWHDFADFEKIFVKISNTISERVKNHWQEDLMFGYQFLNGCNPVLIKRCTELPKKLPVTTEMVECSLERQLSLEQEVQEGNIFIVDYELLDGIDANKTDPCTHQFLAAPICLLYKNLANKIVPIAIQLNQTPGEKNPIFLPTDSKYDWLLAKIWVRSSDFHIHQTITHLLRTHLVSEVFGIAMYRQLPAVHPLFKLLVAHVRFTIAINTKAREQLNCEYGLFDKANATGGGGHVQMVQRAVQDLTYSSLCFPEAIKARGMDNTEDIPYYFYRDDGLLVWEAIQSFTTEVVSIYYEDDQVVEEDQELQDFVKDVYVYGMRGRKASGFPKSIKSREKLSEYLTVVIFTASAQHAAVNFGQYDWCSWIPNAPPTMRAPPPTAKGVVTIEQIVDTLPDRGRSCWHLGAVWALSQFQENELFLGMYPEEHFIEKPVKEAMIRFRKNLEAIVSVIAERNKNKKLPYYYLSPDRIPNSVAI
Assay: inhibiting action upon leukocyte 5-lipoxygenase (RBL-1 cells as enzyme source)
Format: biochemical
Details: 20 μM [14C]-arachidonic acid, 0.7 mM calcium chloride, 37° C., 5 min
Procedure: An inhibiting action of 2-n-heptyl-4-hydroxyquinoline-N-oxide upon lipoxygenase was determined by in vitro test according to the following procesure:
(b) Procedure for determining the inhibiting action upon leukocyte 5-lipoxygenase:
Determination was carried out according to modified B. A. Jakschik, et al, procedure (Biochem. Biophys. Res. Commun. 95, 103 (1980)). That is, leukemic basophilic granulocyte cells of rats (RBL-1, ATCC No. CRL 1378) were used as a 5-lipoxygenase enzyme source. The cells and 2-n-heptyl-4-hydroxyquinoline-N-oxide were brought into contact with each other in a 0.07 M tris hydrochloric acid buffer solution in the presence of 0.7 mM calcium chloride at 37° C. for 5 minutes, and then 20 μM of [^14 C]-arachidonic acid was added thereto. The mixture was incubated at 37° C. for 5 minutes. The reaction product was extracted with ethyl acetate/methanol/0.2M citric acid (30/4/1), and then separated by thin layer chromatography (developing solvent: petroleum ether/ethyl ether/acetic acid: 50/50/1). Spots of 5-hydroxy-[…]-eicosatetraenoic acid in the product were scraped off and ^14 C was measured by a liquid scintillation counter.
Inhibiting actions of compounds in Table 2 upon lipoxygenase were determined in the same manner as in Test Example 1.

Work on `NC1=NN(c2cccc(C(F)(F)F)c2)CC1` [BW-755C, 3-amino-1-(3-trifluoromethylphenyl)-2-pyrazoline hydrochloride, reference compound] yielded an IC50 of 4 µM.
